Reference: ChEMBL document CHEMBL4359932, “Discovery and optimization of a series of small-molecule allosteric inhibitors of MALT1 protease” (Bioorg Med Chem Lett, 2019)

Columns and labels:
[1] = Stability in mouse plasma assessed as remaining compound measured after 7 hrs; assay type: ADME, cell-free; conditions: read-out: Stability
[2] = Stability in mouse plasma assessed as remaining compound measured after 4 hrs; assay type: ADME, cell-free; conditions: read-out: Stability
[3] = Clearance in mouse hepatocytes; assay type: ADME, cell-based, Hepatocyte
[4] = Clearance in mouse liver microsomes; assay type: ADME, Microsome; conditions: read-out: CLH

remaining at 7 h [1] [%]	remaining at 4 h [2] [%]	CLH [3] [µL/min/mg]	microsomal CLint [4] [µL/min/mg]	Compound
15	–	–	–	COc1ccc(NC(=O)C2CCN(c3ncccc3C)C(C)C2)cc1Cl (centres undefined)
–	40	31	262	COc1ccc(NC(=O)[C@@H]2CCN(c3ncccc3Br)[C@H](C)C2)cc1Cl
